Test [1] addresses Acetylcholinesterase (Electrophorus electricus, UniProt O42275).
Test [2] concerns the target Acetylcholinesterase (Homo sapiens, UniProt P22303).
The target of test [3] is Butyrylcholinesterase (Equus caballus, UniProt Q9N1N9).

The IC50 is the concentration that gives 50% inhibition. For `Nc1c2c(nc3ccc(Cl)cc13)C1CCC2C1` (stereo not drawn), the results for the IC50 in test [1], in test [2] and in test [3] were 77.7 nM, 1100 nM and 17 nM, respectively.

The record behind these values is ChEMBL document CHEMBL1126447 (Bioorg Med Chem Lett, 1992).
